Test results taken from patent US20230416677A1, “MEDIUM COMPOSITION FOR DERMAL PAPILLA CELL GROWTH, CONTAINING ROTENONE AND ALBUMIN AS ACTIVE INGREDIENTS” (XCELL THERAPEUTICS INC., priority 2020, published 2023).

Test system: Human dermal papilla cells (hDPC)
Assay: Passage culture of dermal papilla cells in serum-free medium with different albumin concentrations (density, doubling time, accumulated cell number, viability)
Format: cell-based
Procedure: hDPCs were prepared in the same manner as in Example 1. They were treated with different concentrations (0.1, 0.5, 1 g/L) of albumin (Richcore, India) in a serum-free medium containing 1% Antibiotic and Antimycotic Hyclone sv30079.91, and then put in a 25T flask. The cells were inoculated at a concentration of 1.52×10^5/flask. After culturing in a 5% carbon dioxide incubator at 37° C., photographs of the cells were taken before passage to confirm the density of dermal papilla cells according to the concentration of albumin (Richcore).
On the other hand, each time the density of the cells proliferated to 90% or more, the cells were passaged. During the passage, the cells were detached from each flask by the use of TrypLE Express, and then the cells were centrifuged. The supernatant was discarded to leave only the cells in the lower layer. The cells were well resuspended by adding a condition-based medium, and then the cell numbers were measured using NC250™ (Chemometec, Denmark). Using the measured cell number and culture time, the doubling time and accumulated cell number per day were calculated using the following Equation.
A=previous passage, B=current passage
Doubling time=ln(2)×(Δtime between B and A)/ln(count B/count A) [Equation 1]
Accumulated cell number (ACN)=ACN of A×cell count of B/seeding number [Equation 2]
Each time the density of the cells proliferated to 90% or more, the cells were passaged. During the passage, the cells were detached from each flask by the use of TrypLE Express, and then the cells were centrifuged. The supernatant was discarded to leave only the cells in the lower layer. The cells were well resuspended by adding a condition-based medium, and then while progressing the subculture to 10 passages, the cell viability was measured using NC250™ (Chemometec, Denmark) at each passage.

“albumin: plasma protein (Richcore, India) added to serum-free medium; from human plasma, serum or recombinant” was tested, and the “cell density of dermal papilla cells” value (albumin 0.1 g/L versus 1 g/L, serum-free medium, FIG. 2a) was “higher cell density”, the doubling time (albumin 0.1 g/L versus 1 g/L, serum-free medium, FIG. 2b) was “lower doubling time” and the cell viability (albumin 0.1 g/L versus 1 g/L, subculture to 10 passages, FIG. 2d) was “higher cell viability”. The “accumulated cell numbers over time” value (low versus high albumin concentration condition, FIG. 2c) was “higher”.
